The text below walks through data of ChEMBL document CHEMBL5518239, “Recent Advances on Small-Molecule Inhibitors of Lipocalin-like Proteins” (J Med Chem, 2024).

This assay in a line: Selectivity index, ratio of Ki for displacement of fluorescent probe DAUDA from FABP3 (unknown origin) to Ki for displacement of fluorescent probe ANS from FABP7 (unknown origin).

For `O=C(O)[C@H]1[C@H](c2ccccc2)[C@H](C(=O)Oc2cccc(C3=CCOCC3)c2)[C@H]1c1ccccc1`, the Ratio Ki is 0.83.
